Reference: patent publication EP0314008A2, “N-substituted aliphatic heterocyclic compounds able to facilitate the passage of active substances through physiological barriers” (priority 1987, dated 1989)

Tested on: histamine
Experiment: Test 73 - Antihistaminic (in vitro), isolated ileal segments
Assay type: cell-based, guinea pig
Settings: Cavia porcellus; Dose 25 γ/ml; contractile response to histamine (0.5 mcg/ml)
Description: Test 73 - Antihistaminic (in vitro):
Inhibition of submaximal contractile responses of isolated guinea pig ileal segments, bathed in physiological salt solution, to histamine (0.5 mcg/ml) by more than 80 percent (>80) indicates activity.

Compound: CC(C)(C)c1ccc(C(O)CCCN2CCC(C(O)(c3ccccc3)c3ccccc3)CC2)cc1 (stereo not shown) [Terfenadine, reference compound]
- inhibition at 25 µg/mL: 83%
